{"source": "paper PMC6345968", "about": "“Structural basis for species-selective targeting of Hsp90 in a pathogenic fungus” (Nature Communications, 2019)", "key": {"[1]": {"tested_on": "C. albicans reporter strain CaLC922", "assay_type": "cell-based, Candida albicans", "details": "6-h exposure", "procedure": "In addition to effects on host immune function, we also examined activation of the evolutionarily conserved heat-shock response by CMLD013075.\nActivation of the response in C. albicans was also measured in 96-well format using a reporter strain (CaLC922) engineered with HSP70 promoter elements driving expression of the LacZ gene from Streptococcus thermophilus integrated at the HSP70 locus with the URA3 marker for selection. […]"}, "3T3 cells": {"tested_on": "3T3 cells", "assay": "Mammalian cell toxicity, resazurin dye reduction", "details": "3-day culture"}, "[2]": {"tested_on": "S. cerevisiae expressing human Hsp90β", "assay_type": "cell-based, Saccharomyces cerevisiae", "details": "isogenic strains", "text": "A critical consideration in the development of an effective antifungal is not just target binding, but also access to the target across microbial cell membranes and cell walls. Therefore, we evaluated the potency and selectivity of oxime analogs using drug susceptibility assays. We used strains of S. cerevisiae where both endogenous genes encoding isoforms of Hsp90 have been disrupted and growth is solely dependent upon C. albicans or human Hsp90 isoforms.\n(§1) Antifungal tolerance and resistance were determined in flat bottom, 96-well microtiter plates using a modified broth microdilution protocol as described[8],[10]. All Hsp90 inhibitors were formulated in dimethyl sulfoxide (DMSO, Sigma Aldrich Co.); fluconazole was dissolved in sterile ddH2O. Each strain was tested in duplicate on at least two occasions. […] To test for fungicidal activity, cultures from MIC plates were spotted on YPD agar plates using a spotter (Frogger, V&P Scientific, Inc). Plates were photographed after 48 h of incubations at 30 °C."}, "C. albicans SN95": {"tested_on": "C. albicans SN95", "assay": "Checkerboard with fluconazole then spotting on drug-free agar (fungicidal activity)", "assay_type": "cell-based, Candida albicans", "details": "48 h liquid culture, then drug-free solid medium", "procedure": "as §1"}}}
{"smiles": "C[C@@H]1C[C@H]2O[C@@H]2/C=C\\C=C\\C(=O)Cc2c(Cl)c(O)cc(O)c2C(=O)O1", "note": "[radicicol, reference compound]", "values": [{"measurement": "heat-shock reporter activation", "setting": "[1]", "result": "neither ganetespib nor radicicol induced the reporter to a measurable extent"}, {"measurement": "cytotoxicity to 3T3 relative to HEPG2 (less cytotoxic)", "setting": "3T3 cells", "result": "at least 10 fold"}, {"measurement": "activity compared with strain expressing C. albicans Hsp90", "setting": "[2]", "result": "converse"}, {"measurement": "fungicidal activity in combination with FL", "setting": "C. albicans SN95", "result": "transformed the fungistatic azole into a fungicidal combination"}]}
